PubChem BioAssay (NCI)
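In this assay, cells in 96-well plates receive the compound at five concentrations for 48 hours. Endpoints are linearly interpolated between the surrounding concentrations. GI50 marks 50% less growth. At the TGI there is no net growth.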

What was measured:
Test in all cases: DTP human tumour cell line panel, 48 h
SNB-75 CNS = test system: SNB-75 CNS
MDA-MB-231 breast = test system: MDA-MB-231 breast
COLO 205 colon = test system: COLO 205 colon
HS 578T breast = test system: HS 578T breast
SK-MEL-2 melanoma = test system: SK-MEL-2 melanoma
OVCAR-4 ovarian = test system: OVCAR-4 ovarian
NCI-H226 lung = test system: NCI-H226 lung
DU-145 prostate = test system: DU-145 prostate
MDA-MB-435 = test system: MDA-MB-435
RPMI-8226 leukemia = test system: RPMI-8226 leukemia
NCI-H522 lung = test system: NCI-H522 lung
SF-295 CNS = test system: SF-295 CNS
U251 CNS = test system: U251 CNS
SR leukemia = test system: SR leukemia
MCF7 breast = test system: MCF7 breast
HCT-15 colon = test system: HCT-15 colon
HOP-92 NSCLC = test system: HOP-92 NSCLC
TK-10 renal = test system: TK-10 renal
OVCAR-3 ovarian = test system: OVCAR-3 ovarian
OVCAR-5 ovarian = test system: OVCAR-5 ovarian
SF-539 CNS = test system: SF-539 CNS
SF-268 CNS = test system: SF-268 CNS
A549 NSCLC = test system: A549 NSCLC
SK-MEL-28 melanoma = test system: SK-MEL-28 melanoma
SN12C renal = test system: SN12C renal
UO-31 renal = test system: UO-31 renal
HL-60(TB) leukemia = test system: HL-60(TB) leukemia
A498 renal = test system: A498 renal
EKVX NSCLC = test system: EKVX NSCLC
K-562 leukemia = test system: K-562 leukemia
OVCAR-8 ovarian = test system: OVCAR-8 ovarian
SK-MEL-5 melanoma = test system: SK-MEL-5 melanoma
NCI-H460 lung = test system: NCI-H460 lung
HCT-116 colon = test system: HCT-116 colon
UACC-62 melanoma = test system: UACC-62 melanoma
IGROV1 ovarian = test system: IGROV1 ovarian
PC-3 prostate = test system: PC-3 prostate
HT29 colon = test system: HT29 colon
NCI-H23 lung = test system: NCI-H23 lung
SK-OV-3 ovarian = test system: SK-OV-3 ovarian
KM12 colon = test system: KM12 colon
M14 melanoma = test system: M14 melanoma
SNB-19 CNS = test system: SNB-19 CNS
ACHN renal = test system: ACHN renal
T-47D breast = test system: T-47D breast
NCI/ADR-RES ovarian = test system: NCI/ADR-RES ovarian
MDA-N = test system: MDA-N
HCC-2998 colon = test system: HCC-2998 colon
BT-549 breast = test system: BT-549 breast
HOP-62 NSCLC = test system: HOP-62 NSCLC
MALME-3M melanoma = test system: MALME-3M melanoma
MOLT-4 leukemia = test system: MOLT-4 leukemia
NCI-H322M lung = test system: NCI-H322M lung
CAKI-1 renal = test system: CAKI-1 renal
UACC-257 melanoma = test system: UACC-257 melanoma
RXF 393 renal = test system: RXF 393 renal
CCRF-CEM leukemia = test system: CCRF-CEM leukemia
LOX IMVI melanoma = test system: LOX IMVI melanoma
786-0 renal = test system: 786-0 renal

Which results are given for O=C(NCC(F)([N+](=O)[O-])[N+](=O)[O-])N(CC(F)([N+](=O)[O-])[N+](=O)[O-])CC(F)([N+](=O)[O-])[N+](=O)[O-]?
GI50 (SNB-75 CNS): 3.4 µM; TGI (SNB-75 CNS): 11 µM; GI50 (MDA-MB-231 breast): 2.45 µM; TGI (MDA-MB-231 breast): 7.54 µM; GI50 (COLO 205 colon): 1.99 µM; TGI (COLO 205 colon): 3.99 µM; GI50 (HS 578T breast): 13.4 µM; TGI (HS 578T breast): 59.1 µM; GI50 (SK-MEL-2 melanoma): 3.15 µM; TGI (SK-MEL-2 melanoma): 9.56 µM; GI50 (OVCAR-4 ovarian): 2.36 µM; TGI (OVCAR-4 ovarian): 11.8 µM; GI50 (NCI-H226 lung): 7.46 µM; TGI (NCI-H226 lung): 27.9 µM; GI50 (DU-145 prostate): 9.82 µM; TGI (DU-145 prostate): 23.3 µM; GI50 (MDA-MB-435): 1.5 µM; TGI (MDA-MB-435): 3.46 µM; GI50 (RPMI-8226 leukemia): 0.88 µM; TGI (RPMI-8226 leukemia): 4.16 µM; GI50 (NCI-H522 lung): 1.58 µM; TGI (NCI-H522 lung): 4.02 µM; GI50 (SF-295 CNS): 15 µM; TGI (SF-295 CNS): 36.4 µM; GI50 (U251 CNS): 4.76 µM; TGI (U251 CNS): 19.4 µM; GI50 (SR leukemia): 1.94 µM; TGI (SR leukemia): 10.5 µM; GI50 (MCF7 breast): 1.23 µM; TGI (MCF7 breast): 2.8 µM; GI50 (HCT-15 colon): 1.39 µM; TGI (HCT-15 colon): 2.68 µM; GI50 (HOP-92 NSCLC): 1.71 µM; TGI (HOP-92 NSCLC): 3.93 µM; GI50 (TK-10 renal): 2.57 µM; TGI (TK-10 renal): 7.26 µM; GI50 (OVCAR-3 ovarian): 2.42 µM; TGI (OVCAR-3 ovarian): 6.63 µM; GI50 (OVCAR-5 ovarian): 14.3 µM; TGI (OVCAR-5 ovarian): 29.7 µM; GI50 (SF-539 CNS): 2.84 µM; TGI (SF-539 CNS): 8.38 µM; GI50 (SF-268 CNS): 3.71 µM; TGI (SF-268 CNS): 10.9 µM; GI50 (A549 NSCLC): 6.17 µM; TGI (A549 NSCLC): 24 µM; GI50 (SK-MEL-28 melanoma): 5.86 µM; TGI (SK-MEL-28 melanoma): 13.7 µM; GI50 (SN12C renal): 5.48 µM; TGI (SN12C renal): 18.5 µM; GI50 (UO-31 renal): 2.51 µM; TGI (UO-31 renal): 7.61 µM; GI50 (HL-60(TB) leukemia): 1.5 µM; TGI (HL-60(TB) leukemia): 4.96 µM; GI50 (A498 renal): 4.86 µM; TGI (A498 renal): 13.2 µM; GI50 (EKVX NSCLC): 8.25 µM; TGI (EKVX NSCLC): 34 µM; GI50 (K-562 leukemia): 1.34 µM; TGI (K-562 leukemia): 3.7 µM; GI50 (OVCAR-8 ovarian): 3 µM; TGI (OVCAR-8 ovarian): 34.2 µM; GI50 (SK-MEL-5 melanoma): 2.41 µM; TGI (SK-MEL-5 melanoma): 7.83 µM; GI50 (NCI-H460 lung): 3.27 µM; TGI (NCI-H460 lung): 11.4 µM; GI50 (HCT-116 colon): 2.15 µM; TGI (HCT-116 colon): 5.37 µM; GI50 (UACC-62 melanoma): 10.5 µM; TGI (UACC-62 melanoma): 24.1 µM; GI50 (IGROV1 ovarian): 5.04 µM; TGI (IGROV1 ovarian): 19.3 µM; GI50 (PC-3 prostate): 2.48 µM; TGI (PC-3 prostate): 7.04 µM; GI50 (HT29 colon): 2.22 µM; TGI (HT29 colon): 5.78 µM; GI50 (NCI-H23 lung): 10.5 µM; TGI (NCI-H23 lung): 77.5 µM; GI50 (SK-OV-3 ovarian): 15.4 µM; TGI (SK-OV-3 ovarian): 28.8 µM; GI50 (KM12 colon): 5.88 µM; TGI (KM12 colon): 18.8 µM; GI50 (M14 melanoma): 2.18 µM; TGI (M14 melanoma): 6.39 µM; GI50 (SNB-19 CNS): 13.3 µM; TGI (SNB-19 CNS): 34.7 µM; GI50 (ACHN renal): 2.26 µM; TGI (ACHN renal): 6.68 µM; GI50 (T-47D breast): 2.57 µM; TGI (T-47D breast): 7.69 µM; GI50 (NCI/ADR-RES ovarian): 6.68 µM; TGI (NCI/ADR-RES ovarian): 36.5 µM; GI50 (MDA-N): 2.37 µM; TGI (MDA-N): 6.69 µM; GI50 (HCC-2998 colon): 8.6 µM; TGI (HCC-2998 colon): 26.5 µM; GI50 (BT-549 breast): 2.17 µM; TGI (BT-549 breast): 6.28 µM; GI50 (HOP-62 NSCLC): 9.61 µM; TGI (HOP-62 NSCLC): 60.1 µM; GI50 (MALME-3M melanoma): 2.19 µM; TGI (MALME-3M melanoma): 5.16 µM; GI50 (MOLT-4 leukemia): 1.59 µM; TGI (MOLT-4 leukemia): 3.93 µM; GI50 (NCI-H322M lung): 20.2 µM; TGI (NCI-H322M lung): 62.1 µM; GI50 (CAKI-1 renal): 1.18 µM; TGI (CAKI-1 renal): 2.5 µM; GI50 (UACC-257 melanoma): 5.5 µM; TGI (UACC-257 melanoma): 18.5 µM; GI50 (RXF 393 renal): 2.15 µM; TGI (RXF 393 renal): 4.81 µM; GI50 (CCRF-CEM leukemia): 1.69 µM; TGI (CCRF-CEM leukemia): 5.71 µM; GI50 (LOX IMVI melanoma): 2.12 µM; TGI (LOX IMVI melanoma): 7.23 µM; GI50 (786-0 renal): 2.16 µM; TGI (786-0 renal): 4.8 µM
